The values that follow come from patent US20230071371A1 (Scripps Research, published 2023).

Amino acid sequences for entries named in this document (tags omitted). Residues count along the entry.
UniProt P02770, 25-608 limits assumed: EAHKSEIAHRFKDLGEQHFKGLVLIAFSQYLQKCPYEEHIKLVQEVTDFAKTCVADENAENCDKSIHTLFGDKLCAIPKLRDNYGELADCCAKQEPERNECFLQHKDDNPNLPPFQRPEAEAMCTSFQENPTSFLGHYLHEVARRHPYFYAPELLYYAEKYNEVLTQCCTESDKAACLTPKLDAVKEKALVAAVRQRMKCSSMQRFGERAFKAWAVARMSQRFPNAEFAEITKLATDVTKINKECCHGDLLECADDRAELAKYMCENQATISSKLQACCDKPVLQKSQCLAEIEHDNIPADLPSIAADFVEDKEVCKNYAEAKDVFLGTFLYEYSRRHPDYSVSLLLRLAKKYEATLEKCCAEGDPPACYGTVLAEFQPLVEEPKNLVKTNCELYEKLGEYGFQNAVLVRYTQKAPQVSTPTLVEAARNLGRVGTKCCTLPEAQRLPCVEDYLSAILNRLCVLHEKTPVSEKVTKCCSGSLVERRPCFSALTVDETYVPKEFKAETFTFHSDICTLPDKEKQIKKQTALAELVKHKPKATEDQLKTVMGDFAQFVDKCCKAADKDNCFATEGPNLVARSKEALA

In this assay the target is rat serum albumin (rat) (UniProt P02770). Nature of the assay: Biacore SPR. In general terms: SPR reads the build-up and loss of mass on a sensor chip optically.

As for semaglutide (peptide), the Kd (in general, a measure of binding affinity in units of concentration) came to 17 µM.
